Counter-ions that a name gives are not always drawn.
Molecular target: electric eel acetylcholinesterase (Electrophorus electricus, UniProt O42275)
Test: biochemical

Protein sequences, listed by entry. Tags and fused reporters are not part of them. Lines headed by an entry give the natural chain unless they say otherwise; changes in a name come on top.
UniProt O42275: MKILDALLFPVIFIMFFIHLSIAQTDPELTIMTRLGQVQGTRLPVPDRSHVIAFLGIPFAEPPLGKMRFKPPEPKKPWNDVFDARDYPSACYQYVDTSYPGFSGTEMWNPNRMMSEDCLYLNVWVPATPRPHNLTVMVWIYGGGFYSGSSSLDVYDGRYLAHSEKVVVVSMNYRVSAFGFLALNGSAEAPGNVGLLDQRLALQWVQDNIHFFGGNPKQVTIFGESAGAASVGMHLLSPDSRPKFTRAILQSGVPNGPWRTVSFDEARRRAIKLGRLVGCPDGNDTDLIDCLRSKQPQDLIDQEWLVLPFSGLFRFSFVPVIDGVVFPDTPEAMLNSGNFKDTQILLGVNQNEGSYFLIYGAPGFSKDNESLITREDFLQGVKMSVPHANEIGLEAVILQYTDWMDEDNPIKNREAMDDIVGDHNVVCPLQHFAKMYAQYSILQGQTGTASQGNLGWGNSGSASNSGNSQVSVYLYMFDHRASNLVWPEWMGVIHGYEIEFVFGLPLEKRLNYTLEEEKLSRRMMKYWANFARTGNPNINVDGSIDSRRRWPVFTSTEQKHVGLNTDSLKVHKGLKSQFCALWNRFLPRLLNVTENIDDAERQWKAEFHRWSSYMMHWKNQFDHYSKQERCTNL

SMILES: CNC(=O)Oc1ccc2c(c1)[C@@]1(C)CCN(C)[C@H]1N2C [PL#16, (−)-Physostigmine sulfate, reference compound]
- IC50: 580 nM

Source: patent US20040127518A1, “Modulation of anxiety through blockade of anandamide hydrolysis” (priority 2002, published 2004)
